The entries are a selection whose mix differs from that of the whole data set. Some salts or complexes appear as unconnected parts, following the source record. Active and inactive are the calls of the source.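 How the source made its calls: active means activation at or above 40% of the spot to cytoplasm intensity ratio, with at least 20 cells analyzed; inconclusive means wells under 20 cells, flagged as cytotoxic or low count; inactive means the rest.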

Protein sequences, listed by entry. Tags and fused reporters are not part of them.
UniProt P30989, whole entry: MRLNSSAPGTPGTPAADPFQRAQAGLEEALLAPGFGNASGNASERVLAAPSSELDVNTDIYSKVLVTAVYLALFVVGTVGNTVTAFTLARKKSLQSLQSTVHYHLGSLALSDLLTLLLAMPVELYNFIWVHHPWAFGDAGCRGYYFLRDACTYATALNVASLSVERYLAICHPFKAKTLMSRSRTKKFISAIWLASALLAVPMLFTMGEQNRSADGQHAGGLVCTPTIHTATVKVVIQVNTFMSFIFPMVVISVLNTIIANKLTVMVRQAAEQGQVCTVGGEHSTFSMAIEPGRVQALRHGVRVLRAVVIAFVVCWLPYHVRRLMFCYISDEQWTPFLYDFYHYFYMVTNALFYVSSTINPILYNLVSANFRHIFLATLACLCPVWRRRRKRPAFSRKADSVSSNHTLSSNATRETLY

The target in the experiment is Neurotensin receptor type 1 (Homo sapiens) (UniProt P30989). Put plainly: NTR1-driven beta-arrestin-GFP spot formation – imaging, U2OS cells, high content, primary screen (AID 493036) (AID 493036).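 Further: 0% = DMSO without peptide and 100% = 100 nM NTR1 peptide.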 As to conditions: agonist mode, at 20 µM, hits give high values.
Take `CCc1nc2c(n1)c1c(non1O)c1c2no[n+]1[O-]`: the activation was inactive: 1.7%.
The same measure for `O=[N+]([O-])c1cc([N+](=O)[O-])c(CCNc2ccccc2)c([N+](=O)[O-])c1`: inactive: 15.7%; for `CCc1ccc(OP(C)(=O)Nc2cccnc2)cc1` (centres undefined): inactive: 0.4%.
The same measure for `CP(=O)(Oc1ccccc1)N1CCOC1=O` (centres undefined): inactive: -0.7%; for `Cc1ccc(NP(=O)(Oc2ccccc2)Oc2ccccc2)nc1`: inactive: 0.4%; for `O=C(OCCCN1CCCC1)C(O)(c1ccccc1)C1CCCCC1` (centres undefined): inactive: 0.6%.
With `COc1ccccc1OP(C)(=O)Nc1c(C)n(C)n(-c2ccccc2)c1=O` (centres undefined), the activation was inactive: 4.9%.
The same measure for `O=[N+]([O-])c1cccc2n[nH]nc12`: inactive: 1.8%; for `CC(=O)N1C2C3N(C(C)=O)C1C1N(C(C)=O)C(C(N1C(C)=O)N3C(C)=O)N2C(C)=O`: inactive: 0.4%; for `COc1ccc(OP(C)(=O)Nc2ccc(Br)cc2)cc1` (centres undefined): inactive: -0.8%.
In the case of `COc1ccc(C2=NCC(CBr)S2)cc1` (centres undefined), the activation was inactive: 1.3%.
The value for `CCN(CC)CC(O)COC(=O)C(O)(c1ccccc1)C1CCCCC1` (centres undefined) was inactive: -1.4%; that for `CC1CCN(C(=O)Oc2c(Cl)cc(Cl)c3cccnc23)CC1` was inactive: 9.8%.
The value for `CN(C)C(=O)OCCc1n(C)cc[n+]1C` was inactive: 3.5%.
The same measure for `CN(C)C(=O)c1c([N+](=O)[O-])cc([N+](=O)[O-])cc1[N+](=O)[O-]`: inactive: -0.6%; for `CC(C)=N/N=C(\N)N[N+](=O)[O-]`: inactive: 0.5%; for `CP(=O)(Nc1ccc(Cl)cc1)Oc1ccc(F)cc1` (centres undefined): inactive: -1.6%.
For `CCN(/C(=N/P(=O)(N1CCOCC1)N1CCOCC1)N1CCOCC1)c1ccc(OC)cc1`, the activation was inactive: -0.1%.
Regarding `C[N+]1=C2C=CC=CC=C2SC12C([N+](=O)[O-])=CC([N+](=O)[O-])=C[C-]2[N+](=O)[O-]` (centres undefined), the activation is inactive: 4.5%.
The value for `CC(C)(C)c1ccc(OP(C)(=O)O)cc1` was inactive: 1.1%.
The value for `Nc1ccc([As](=O)(O)c2ccc(N)cc2)cc1` was inactive: -1%; that for `COc1ccccc1OP(C)(=O)Nc1ccccc1Br` (centres undefined) was inactive: 3.7%; that for `CP(=O)(OC12CC3CC(CC(C3)C1)C2)OC12CC3CC(CC(C3)C1)C2` was inactive: 7.4%.
In the case of `O=C(Nc1cc([As](=O)(O)O)ccc1O)c1ccccc1`, the activation is inactive: 0.6%.
The value for `CCOC(=O)c1ccc(NP(C)(=O)Oc2ccc(Cl)cc2)cc1` (centres undefined) was inactive: -1.1%.
The value for `Nc1ccc2c(ccc3cccnc32)n1.O=[N+]([O-])c1cc([N+](=O)[O-])c(O)c([N+](=O)[O-])c1` was inactive: 1.1%.
Take `O=[N+]([O-])c1cccc(NC2=NCC(CBr)S2)c1` (centres undefined): the activation is inactive: 0.1%.
The value for `O=[N+]([O-])c1ncn(CCn2ncnc2[N+](=O)[O-])n1` was inactive: 1.5%.
The value for `CC(C)(C)C(=O)NC(Sc1ccncn1)C(Cl)(Cl)Cl` (centres undefined) was inactive: 1.2%; that for `COc1ccc(OP(C)(=O)Nc2ccccc2Br)cc1` (centres undefined) was inactive: -0.2%.
The same measure for `Cc1ccc(NP(=O)(Oc2ccccc2F)Oc2ccccc2F)nc1`: inactive: -0.6%.
On to `CN(C(=O)Cc1ccc(Cl)c(Cl)c1)[C@H]1CCCC[C@@H]1N1CCCC1`, for which the activation was inactive: -0.3%.
The value for `COc1ccccc1OP(C)(=O)Nc1ccc(C)c(C)c1` (centres undefined) was inactive: 1.2%.
On to `CCOP(=O)(Nc1ccccc1)OCC`, for which the activation was inactive: 0.1%.
The value for `Cc1cc(SC(NC(=O)c2ccc(F)cc2)C(Cl)(Cl)Cl)ncn1` (centres undefined) was inactive: 1.3%; that for `Cc1cc(C)cc(OP(C)(=O)Nc2cccc(C(F)(F)F)c2)c1` (centres undefined) was inactive: 1.3%.
For `O=P(Nc1nc2ccc(Cl)cc2s1)(c1ccccc1)c1ccccc1`, the activation was inactive: -0.6%.
On to `O=C(O)c1ccccc1[As](=O)(O)O`, for which the activation is inactive: 0.2%.
As for `CC(=O)Nc1ccc([As](=O)(O)O)cc1`, the activation was inactive: -0.8%.
As for `CP(=O)(OCCOc1ccccc1)OCCOc1ccccc1`, the activation was inactive: 0%.
The same measure for `CP(=O)(Nc1ccc(Cl)cc1Cl)Oc1ccccc1` (centres undefined): inactive: -1.2%; for `CCN(N=Nc1nonc1N)c1nonc1N`: inactive: 0.3%.
The same measure for `O=[N+]([O-])c1cc([N+](=O)[O-])c(CCN2CCOCC2)c([N+](=O)[O-])c1`: inactive: 3.9%; for `Cc1nc2ccc3ccccc3c2o1.O=[N+]([O-])c1cc([N+](=O)[O-])c(O)c([N+](=O)[O-])c1`: inactive: 1.8%; for `Clc1ccc(Cl)c(NC2=NCC(CBr)S2)c1` (centres undefined): inactive: -1.2%.
The same measure for `CN(C)CCOC(=O)C(O)(c1ccccc1)C1CCCC1` (centres undefined): inactive: 0.1%; for `CN1CCCC(OC(=O)C(c2ccccc2)c2ccccc2)C1` (centres undefined): inactive: -1%.
As for `Cc1ccc(OP(=O)(Nc2nccs2)Oc2ccc(C)cc2)cc1`, the activation was inactive: 1%.
The same measure for `COc1ccc(OP(C)(=O)Nc2ccccn2)cc1` (centres undefined): inactive: 3.6%; for `COc1ccccc1OP(=O)(Nc1ccc(C)cn1)Oc1ccccc1OC`: inactive: 0%; for `Cc1ccc(N/C(=N/P(=O)(N2CCOCC2)N2CCOCC2)N2CCOCC2)cc1`: inactive: -0.2%.
The same measure for `COc1ccccc1OP(C)(=O)Nc1ccc(Br)cc1` (centres undefined): inactive: -1.2%.
The same measure for `CN(C(=O)Cc1ccc(Cl)c(Cl)c1)[C@H]1CCCC[C@H]1N1CCCC1`: inactive: -1.2%; for `NC(=O)c1cc([N+](=O)[O-])cc([N+](=O)[O-])c1N`: inactive: -0.7%; for `CCc1ccc(OP(C)(=O)O)cc1`: inactive: -2.1%.
For `COc1ccccc1OP(C)(=O)Nc1ccc(C)cc1C` (centres undefined), the activation is inactive: 0.7%.
In the case of `CP(=O)(Nc1ccccn1)Oc1ccccc1` (centres undefined), the activation is inactive: -0.7%.
The value for `Cc1c2non([O-])c-2c(C)[n+](=O)[n+]1[O-]` was inactive: 4.1%.
The value for `O=C(NC(Sc1ccncn1)C(Cl)(Cl)Cl)c1ccccc1` (centres undefined) was inactive: 2.2%; that for `Oc1ccccc1CNc1ccccn1` was inactive: 0.9%; that for `CC(C)CC(=O)NC(Sc1ccc(Cl)cc1)C(Cl)(Cl)Cl` (centres undefined) was inactive: -1%.
The same measure for `O=[N+]([O-])c1cc([N+](=O)[O-])c(Nc2ccccn2)c([N+](=O)[O-])c1`: inactive: 0.5%; for `Cc1c(NP(C)(=O)Oc2ccc(C(C)C)cc2)c(=O)n(-c2ccccc2)n1C` (centres undefined): inactive: -1.1%; for `Nc1cc(N)c2nonc2c1[N+](=O)[O-]`: inactive: -0.4%.
As to `CC(C)c1ccc(OP(C)(=O)Nc2ccc(SC(F)(F)F)cc2)cc1` (centres undefined), the activation was inactive: 16.8%.
Regarding `CC(C)(C)C(=O)NC(Sc1ccccc1)C(Cl)(Cl)Cl` (centres undefined), the activation was inactive: 0.6%.
In the case of `CP(=O)(Nc1ccccc1F)Oc1ccccc1` (centres undefined), the activation was inactive: 0%.
The value for `CCOc1ccc(C2=NCC(CBr)S2)cc1` (centres undefined) was inactive: 6.5%; that for `O=P1(Nc2nc3ccc(Cl)cc3s2)COc2ccccc2O1` (centres undefined) was inactive: -0.5%.
The value for `CC(=O)Nc1ccc(Oc2c([N+](=O)[O-])cc([N+](=O)[O-])cc2[N+](=O)[O-])cc1` was inactive: 0.7%; that for `COc1ccc2c(c1O)-c1c(O)c(OC)cc3c1[C@H](C2)[N+](C)(C)CC3.O=[N+]([O-])c1cc([N+](=O)[O-])c([O-])c([N+](=O)[O-])c1[O-]` was inactive: 2.1%; that for `CC(=O)Nc1ccc([As](=O)(O)O)c(O)c1` was inactive: -0.7%.
Consider `C[C@@H]1C=CCP(=O)(Oc2ccccc2)O1` (some centres undefined), for which the activation was inactive: -0.4%.
Regarding `C[C@H]1OP(=O)(Oc2ccccc2)C[C@@H]2O[C@@H]21` (some centres undefined), the activation is inactive: 3.7%.
The value for `Cc1ccccc1CN(C)C(=O)COC(=O)C(O)(c1ccccc1)c1ccccc1` was inactive: 1.4%.
The value for `O=C(OCCN1CCN(CCOCc2ccccc2)CC1)C(O)(c1ccccc1)c1ccccc1` was inactive: -0.2%; that for `O=C(OC1CN2CCC1CC2)c1ccc([N+](=O)[O-])cc1` (centres undefined) was inactive: 0.2%.
Turning to `COc1ccc(OP(C)(=O)Nc2ccc(SC(F)(F)F)cc2)cc1` (centres undefined), the activation was inactive: 4.1%.
The value for `CCOC(=O)c1ccc(NP(C)(=O)Oc2ccc(F)cc2)cc1` (centres undefined) was inactive: 2.5%; that for `Cc1ccc(NP(=O)(Oc2cccc(C)c2)Oc2cccc(C)c2)nc1` was inactive: -1%.
The value for `CCOC(=O)NC(Sc1ccccc1)C(Cl)(Cl)Cl` (centres undefined) was inactive: 1.6%; that for `c1ccc(-c2nn[nH]n2)c(-c2nn[nH]n2)c1` was inactive: 0.8%.
The same measure for `CCNC(=S)/N=C(\N)N[N+](=O)[O-]`: inactive: 0.8%; for `O=C(NC1CCS(=O)(=O)C1)NP(=S)(Oc1ccccc1)Oc1ccccc1` (centres undefined): inactive: 0.5%.
With `CN(C)C(=O)Oc1noc2ccccc12`, the activation was inactive: 0.3%.
Consider `CCCCCOc1ccc(NP(C)(=O)Oc2ccc(Cl)cc2Cl)cc1` (centres undefined), for which the activation was inactive: 13.4%.
In the case of `O=[N+]([O-])c1cc([N+](=O)[O-])c(OC2CCCCC2O)c([N+](=O)[O-])c1` (centres undefined), the activation was inactive: -1.2%.
The value for `Cc1ccccc1OP(=O)(Nc1ccccn1)Oc1ccccc1C` was inactive: 1.7%.
The same measure for `CC(NC(=O)COC(=O)C(O)(c1ccccc1)c1ccccc1)c1ccccc1` (centres undefined): inactive: -0.8%.
The value for `CP(=O)(Nc1ccccc1)Oc1ccc(F)cc1` (centres undefined) was inactive: -0.4%; that for `CCN(CC)CCCOC(=O)C(O)(c1ccccc1)C1CCCCC1` (centres undefined) was inactive: -0.9%; that for `CCC(=O)N1C2C3N(C(=O)CC)C1C1N(C(=O)CC)C(C(N1C(=O)CC)N3C(=O)CC)N2C(=O)CC` was inactive: 3.3%.
Take `O=C(OC1CN2CCC1CC2)c1ccccc1` (centres undefined): the activation was inactive: 0.3%.
The value for `CC(=O)NC(SC(=S)N(CC(C)C)CC(C)C)C(Cl)(Cl)Cl` (centres undefined) was inactive: 2.9%; that for `Cc1ccc(OP(=O)(Nc2ccccn2)Oc2ccc(C)cc2)cc1` was inactive: 6%; that for `COC(=O)c1cc2c(s1)N=C(c1ccccc1)N(C)P2(=O)N1CCOCC1` (centres undefined) was inactive: 0.3%.
The value for `COc1ccc(NP(C)(=O)Oc2ccccc2OC)cc1` (centres undefined) was inactive: -0.5%; that for `C[C@H]1OP(=O)(Oc2ccccc2)[C@H](O)[C@H](O)[C@H]1N=[N+]=[N-]` (some centres undefined) was inactive: -1.5%.
The value for `CN(C)CCOC(=O)C(O)(c1ccccc1)C1CCCCC1` (centres undefined) was inactive: 0.4%.

The values above are taken from PubChem BioAssay AID493036 (Sanford-Burnham Center for Chemical Genomics, 2011).
